# This is a selection; strong and weak results do not stand in their true shares. Calls of active or inactive are those of the source.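 The calls were made as follows: active = inhibition above the campaign mean of all tested compounds plus 3 SD (cut at about 14% in these data); inactive = the rest.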
# Protein sequences, listed by entry. Tags and fused reporters are not part of them. Lines headed by an entry give the natural chain unless they say otherwise; changes in a name come on top.
# UniProt O75884: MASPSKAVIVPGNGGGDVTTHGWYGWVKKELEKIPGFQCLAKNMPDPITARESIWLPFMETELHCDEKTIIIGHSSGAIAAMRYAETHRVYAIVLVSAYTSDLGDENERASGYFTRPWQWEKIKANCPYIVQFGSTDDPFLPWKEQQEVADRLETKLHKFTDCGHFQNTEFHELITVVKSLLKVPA
# Biological target: Serine hydrolase RBBP9 (Homo sapiens) (UniProt O75884)
# Assay: human RBBP9 inhibitors, primary screen, biochemical, fluorescence polarization, FP-Rh probe, HTS (AID 1515);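 also: plate controls were DMSO wells with RBBP9 for no effect and wells lacking RBBP9 protein for full effect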
# Conditions: recombinant RBBP9, FP-Rh probe fluorescence polarization; at 7.94 µM; stronger effect = higher value
row,Structure (SMILES),inhibition
1,O=[As](O)(c1ccccc1Br)c1ccccc1Br,inactive: -6.38%
2,CC(C)(C)C(=O)NC(Sc1ncccn1)C(Cl)(Cl)Cl (stereo not drawn),inactive: -0.08%
3,Clc1n[nH]nc1-c1nn[nH][15n]1,inactive: -11.2%
4,O=P1(Nc2ccccn2)COc2ccccc2OC1,inactive: 0.46%
5,CCOP(=O)(Nc1ccc(C)cn1)OCC,inactive: -1.4%
6,CCOP(=O)(Nc1cccc2ccccc12)OCC,inactive: -4.25%
7,COc1cc(C2NCCC3(OCCO3)C2(C)C)cc(OC)c1OC (stereo not drawn),inactive: -2.59%
8,Cc1ccc(NCCc2c([N+](=O)[O-])cc([N+](=O)[O-])cc2[N+](=O)[O-])cc1,inactive: 0.34%
9,Nc1cccc2c([As](=O)(O)O)cccc12,inactive: 1.87%
10,CCCOP(=S)(Nc1nc(N)cc(=O)[nH]1)OCCC,inactive: 10.1%
11,O=[As](O)(c1cccc(O)c1)c1cccc(O)c1,inactive: -2.53%
12,Cc1cccc(OCC(=O)OC2CN3CCC2CC3)c1 (stereo not drawn),inactive: 0.84%
13,O=C(OC1CN2CCC1CC2)c1ccc(Cl)cc1 (stereo not drawn),inactive: 4.4%
14,COc1cc(C(=O)NCC2(N3CCOCC3)CCCCC2)cc(Cl)c1OC(C)C,inactive: -7.17%
15,O=[As](O)(O)c1cccnc1,inactive: -10.5%
16,CCOP1(=S)c2c(C)nn(CCC#N)c2N=C(c2ccc(F)cc2)N1C (stereo not drawn),inactive: 1.66%
17,O=[N+]([O-])c1ccc2c(c1)nnn2O,inactive: -2.51%
18,Nc1ccccc1[As](=O)(O)c1ccccc1,inactive: -8.82%
19,O=C(O)COc1ccc([As](=O)(O)O)cc1[N+](=O)[O-],inactive: 5.9%
20,O=P(Nc1nccs1)(c1ccccc1)c1nc2ccccc2s1 (stereo not drawn),inactive: -7.02%
21,O=P(Nc1nccs1)(Oc1ccccc1)Oc1ccccc1,inactive: -9.54%
22,CCOP1(=S)c2c(C)nn(CCC#N)c2N=C(c2ccccc2F)N1C (stereo not drawn),inactive: -7.25%
23,CS(=O)(=O)c1cc([N+](=O)[O-])c2no[n+]([O-])c2c1,active: 26.1%
